Experiment [1] addresses HDAC 4 human recombinant enzyme (Homo sapiens, UniProt P56524). The experiment in a line: HDAC 4 assay (BPS Bioscience kit). The note with it: read-out: Percent inhibition HDAC 4.
The target in a further experiment is T1, HDAC 7 (Homo sapiens, UniProt Q8WUI4).
T1 sequence (Q8WUI4 1-952): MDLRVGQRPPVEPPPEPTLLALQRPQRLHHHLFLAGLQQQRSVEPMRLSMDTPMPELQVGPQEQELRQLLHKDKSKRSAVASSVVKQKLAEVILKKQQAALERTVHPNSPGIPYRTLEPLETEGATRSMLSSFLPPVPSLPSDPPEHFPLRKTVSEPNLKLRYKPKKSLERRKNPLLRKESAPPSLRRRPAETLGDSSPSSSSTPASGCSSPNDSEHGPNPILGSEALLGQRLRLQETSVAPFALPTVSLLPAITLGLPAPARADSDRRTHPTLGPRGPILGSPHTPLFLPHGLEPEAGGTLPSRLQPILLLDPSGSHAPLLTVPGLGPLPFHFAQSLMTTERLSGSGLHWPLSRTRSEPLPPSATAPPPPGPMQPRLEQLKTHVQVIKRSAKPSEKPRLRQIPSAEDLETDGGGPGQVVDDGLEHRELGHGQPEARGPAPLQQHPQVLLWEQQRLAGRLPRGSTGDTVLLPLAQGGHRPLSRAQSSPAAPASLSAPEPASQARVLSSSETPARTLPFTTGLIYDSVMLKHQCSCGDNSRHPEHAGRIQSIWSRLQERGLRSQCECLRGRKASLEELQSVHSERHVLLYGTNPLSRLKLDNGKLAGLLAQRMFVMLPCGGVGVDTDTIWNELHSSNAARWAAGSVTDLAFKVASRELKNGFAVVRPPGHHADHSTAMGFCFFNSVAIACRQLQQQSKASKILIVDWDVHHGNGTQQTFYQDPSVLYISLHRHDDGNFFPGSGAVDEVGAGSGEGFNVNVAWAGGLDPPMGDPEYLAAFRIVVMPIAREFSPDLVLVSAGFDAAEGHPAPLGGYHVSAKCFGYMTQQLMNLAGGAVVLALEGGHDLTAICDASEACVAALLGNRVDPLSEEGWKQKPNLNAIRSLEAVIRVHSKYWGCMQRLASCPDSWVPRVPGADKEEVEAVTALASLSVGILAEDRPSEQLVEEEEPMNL
Description: HDAC 7 assay (BPS Bioscience kit).

Sequences of proteins named here, by UniProt entry; tags and fusion partners are left off. A change or cut given only in a name is not applied to a line headed by its entry.
UniProt P56524: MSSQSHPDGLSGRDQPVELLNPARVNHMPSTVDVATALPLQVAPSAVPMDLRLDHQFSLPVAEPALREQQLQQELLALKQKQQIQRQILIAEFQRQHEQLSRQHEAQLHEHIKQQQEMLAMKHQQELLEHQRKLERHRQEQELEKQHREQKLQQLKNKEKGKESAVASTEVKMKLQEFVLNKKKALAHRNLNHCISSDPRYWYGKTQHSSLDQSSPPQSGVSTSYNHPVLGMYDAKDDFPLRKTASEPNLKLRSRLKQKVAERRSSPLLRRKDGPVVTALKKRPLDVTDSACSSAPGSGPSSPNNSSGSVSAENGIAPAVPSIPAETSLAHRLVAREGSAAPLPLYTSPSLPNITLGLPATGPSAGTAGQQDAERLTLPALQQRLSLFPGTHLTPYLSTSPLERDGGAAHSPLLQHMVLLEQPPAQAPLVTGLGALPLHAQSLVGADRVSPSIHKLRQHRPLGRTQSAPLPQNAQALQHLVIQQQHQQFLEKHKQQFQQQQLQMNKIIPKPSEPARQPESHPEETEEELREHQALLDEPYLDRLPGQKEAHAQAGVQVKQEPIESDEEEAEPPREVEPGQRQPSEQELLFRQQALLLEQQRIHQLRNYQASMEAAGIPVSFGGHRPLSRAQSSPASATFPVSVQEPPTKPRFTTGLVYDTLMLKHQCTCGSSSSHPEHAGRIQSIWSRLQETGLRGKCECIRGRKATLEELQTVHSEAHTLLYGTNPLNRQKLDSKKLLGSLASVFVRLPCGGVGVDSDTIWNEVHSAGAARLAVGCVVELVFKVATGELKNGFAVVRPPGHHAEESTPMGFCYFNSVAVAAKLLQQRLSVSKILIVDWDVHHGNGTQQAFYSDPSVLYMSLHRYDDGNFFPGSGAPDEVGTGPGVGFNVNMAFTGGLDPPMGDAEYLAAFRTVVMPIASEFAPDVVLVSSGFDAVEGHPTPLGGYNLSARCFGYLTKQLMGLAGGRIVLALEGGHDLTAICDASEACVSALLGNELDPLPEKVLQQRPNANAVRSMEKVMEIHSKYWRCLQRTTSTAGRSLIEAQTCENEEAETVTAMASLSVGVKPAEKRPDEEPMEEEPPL
UniProt Q9UQL6: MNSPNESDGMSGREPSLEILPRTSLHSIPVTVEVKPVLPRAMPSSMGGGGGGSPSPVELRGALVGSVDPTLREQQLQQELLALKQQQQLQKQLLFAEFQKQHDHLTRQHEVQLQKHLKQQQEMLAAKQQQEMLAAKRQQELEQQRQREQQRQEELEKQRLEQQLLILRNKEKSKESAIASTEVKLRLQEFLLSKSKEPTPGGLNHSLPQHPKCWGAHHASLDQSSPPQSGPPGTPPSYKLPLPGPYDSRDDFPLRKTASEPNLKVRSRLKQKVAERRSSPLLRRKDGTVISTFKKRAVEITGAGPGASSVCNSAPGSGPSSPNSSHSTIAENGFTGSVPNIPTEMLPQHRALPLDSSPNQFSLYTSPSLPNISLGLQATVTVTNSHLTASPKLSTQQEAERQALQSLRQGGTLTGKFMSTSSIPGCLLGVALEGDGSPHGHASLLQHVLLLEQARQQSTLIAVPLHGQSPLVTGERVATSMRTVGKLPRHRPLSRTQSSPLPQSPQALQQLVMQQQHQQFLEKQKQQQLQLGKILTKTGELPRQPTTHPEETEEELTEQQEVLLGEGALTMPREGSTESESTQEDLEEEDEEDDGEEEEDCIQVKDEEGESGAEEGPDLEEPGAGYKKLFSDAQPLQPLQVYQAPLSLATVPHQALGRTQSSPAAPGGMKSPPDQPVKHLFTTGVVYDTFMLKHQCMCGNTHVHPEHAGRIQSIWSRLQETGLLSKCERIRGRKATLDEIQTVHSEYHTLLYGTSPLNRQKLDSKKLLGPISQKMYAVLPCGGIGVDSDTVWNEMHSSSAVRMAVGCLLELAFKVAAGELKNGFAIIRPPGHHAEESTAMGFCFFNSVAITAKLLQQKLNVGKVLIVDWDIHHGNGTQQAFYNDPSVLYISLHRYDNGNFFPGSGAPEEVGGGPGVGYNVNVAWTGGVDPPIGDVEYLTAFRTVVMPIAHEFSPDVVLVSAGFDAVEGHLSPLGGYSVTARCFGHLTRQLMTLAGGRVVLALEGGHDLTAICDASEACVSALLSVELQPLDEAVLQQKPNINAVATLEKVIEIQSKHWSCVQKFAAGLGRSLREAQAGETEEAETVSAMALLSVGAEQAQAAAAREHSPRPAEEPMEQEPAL

Experiment [2] has as its system HEK293 cells that express an HTT exon containing 17 glutamine repeats (HTT17Q-mCherry). Description: Huntington's Disease (HD) model: protein aggregates (puncta) per cell in HEK293H cells transfected with HTT17Q-mCherry. The note with it: Example 1, FIG. 2; 10 μM compound, 6 h.
A further experiment deals with T2, HDAC 8 (Homo sapiens, UniProt Q9BY41).
T2 sequence (Q9BY41 1-377): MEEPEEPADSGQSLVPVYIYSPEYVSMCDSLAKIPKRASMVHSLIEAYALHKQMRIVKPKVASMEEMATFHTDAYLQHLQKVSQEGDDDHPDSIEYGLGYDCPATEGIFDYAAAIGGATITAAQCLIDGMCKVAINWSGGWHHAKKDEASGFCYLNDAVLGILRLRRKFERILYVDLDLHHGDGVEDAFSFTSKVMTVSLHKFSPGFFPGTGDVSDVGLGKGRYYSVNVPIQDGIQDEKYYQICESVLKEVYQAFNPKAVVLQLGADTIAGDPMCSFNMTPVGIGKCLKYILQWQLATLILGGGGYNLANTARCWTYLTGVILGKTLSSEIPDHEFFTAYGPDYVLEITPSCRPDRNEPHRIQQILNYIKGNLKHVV
Description: HDAC 8 assay (BPS Bioscience kit). The note with it: footnotes a,c: tested at 1 uM; 100 nM; average of 2 independent measurements.

A further experiment has as its target T3, HDAC 6 (Homo sapiens, UniProt Q9UBN7).
T3 sequence (Q9UBN7 1-1215): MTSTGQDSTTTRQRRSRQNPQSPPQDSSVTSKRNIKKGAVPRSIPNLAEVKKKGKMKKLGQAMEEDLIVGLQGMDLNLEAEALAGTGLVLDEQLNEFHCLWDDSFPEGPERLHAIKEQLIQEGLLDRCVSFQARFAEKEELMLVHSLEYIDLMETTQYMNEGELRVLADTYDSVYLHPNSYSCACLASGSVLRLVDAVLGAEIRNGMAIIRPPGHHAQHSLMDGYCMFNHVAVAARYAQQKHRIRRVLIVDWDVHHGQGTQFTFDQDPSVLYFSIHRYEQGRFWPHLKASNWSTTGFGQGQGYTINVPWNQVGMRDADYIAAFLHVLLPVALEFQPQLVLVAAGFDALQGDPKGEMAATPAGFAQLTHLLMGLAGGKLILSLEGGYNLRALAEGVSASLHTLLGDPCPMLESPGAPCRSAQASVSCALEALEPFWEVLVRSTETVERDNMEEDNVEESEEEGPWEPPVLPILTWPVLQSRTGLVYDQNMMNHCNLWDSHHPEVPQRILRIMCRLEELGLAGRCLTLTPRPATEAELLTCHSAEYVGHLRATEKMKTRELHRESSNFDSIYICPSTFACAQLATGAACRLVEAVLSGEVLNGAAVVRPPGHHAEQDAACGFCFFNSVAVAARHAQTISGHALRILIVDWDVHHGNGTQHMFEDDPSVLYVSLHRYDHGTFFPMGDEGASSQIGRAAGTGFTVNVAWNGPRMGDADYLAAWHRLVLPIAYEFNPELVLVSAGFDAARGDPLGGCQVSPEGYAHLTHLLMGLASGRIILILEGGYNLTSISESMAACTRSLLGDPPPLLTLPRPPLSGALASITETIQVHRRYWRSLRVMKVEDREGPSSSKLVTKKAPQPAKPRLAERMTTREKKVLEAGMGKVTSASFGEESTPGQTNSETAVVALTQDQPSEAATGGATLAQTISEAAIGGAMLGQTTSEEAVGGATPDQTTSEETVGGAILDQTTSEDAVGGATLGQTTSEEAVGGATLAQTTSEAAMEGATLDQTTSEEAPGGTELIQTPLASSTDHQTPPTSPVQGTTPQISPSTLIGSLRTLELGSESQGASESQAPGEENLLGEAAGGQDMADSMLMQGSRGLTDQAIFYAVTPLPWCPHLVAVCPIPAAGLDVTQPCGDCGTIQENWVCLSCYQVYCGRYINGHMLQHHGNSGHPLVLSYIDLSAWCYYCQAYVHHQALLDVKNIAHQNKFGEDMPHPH
Description: HDAC 6 assay (BPS Bioscience kit). The note with it: for inhibition of HDAC6: at 0.2 μM concentration; for Percent inhibition HDAC 6: footnotes b,c: tested at 200 nM, 100 nM, variable, average of 2 independent measurements.

A further experiment has as its target HDAC 5 (Homo sapiens, UniProt Q9UQL6). Description: HDAC 5 assay (BPS Bioscience kit).

Data on three compounds can be found in patent US12600705B2, “Heat shock protein modulators and anti-Huntington disease therapeutic agents” (UNIVERSITY OF PITTSBURGH-OF THE COMMONWEALTH SYSTEM OF …, priority 2020, dated 2026).

The inhibition is the percentage by which the read-out fell short of the control.

Structures are written as SMILES.

With `CCOC(=O)C1=CN(CCCC(=O)NO)S(=O)(=O)NC1c1ccc(Cl)cc1Cl` (stereo not shown) [Compound 12g, Ethyl 3-(2,4-dichlorophenyl)-6-(4-(hydroxyamino)-4-oxobutyl)-3,6-dihydro-2H-1,2,6-thiadiazine-4-carboxylate 1,1-dioxide], in experiment [1], the inhibition at 1 µM came to 5%. In addition, the “Percent inhibition HDAC 7” value on HDAC 7 (Compound tested at 100 nM) is “NIA”. For the same compound, the “Effect on aggregate suppression compared to the MAL1-271 positive control” value in experiment [2] is on record as “slightly greater effect”. Further, on HDAC 8, the “Percent inhibition HDAC 8” value was 46%^e. For the same compound, on HDAC 6, the “inhibition of HDAC6” value was “not inhibited” and the “Percent inhibition HDAC 6” value came to 10%^d. The “Percent inhibition HDAC 5” value at HDAC 5 (Compound tested at 200 nM) is “NIA”.

Consider `CCOC(=O)C1=CN(Cc2ccc(C(=O)NO)cc2)S(=O)(=O)NC1c1ccc(Cl)cc1Cl` (stereo not shown) [Compound 12h, Ethyl 3-(2,4-dichlorophenyl)-6-(4-(hydroxycarbamoyl)benzyl)-3,6-dihydro-2H-1,2,6-thiadiazine-4-carboxylate 1,1-dioxide], for which the inhibition at 1 µM in experiment [1] was determined as 23%; at HDAC 7 (read-out: inhibition of HDAC 7), 40%. In addition, the inhibition at 0.1 µM on HDAC 7 (read-out: Percent inhibition HDAC 7) came out at 40%. The “Effect on aggregate suppression compared to the MAL1-271 positive control” value in experiment [2] is recorded as “less effective”. The “Percent inhibition HDAC 8” value at HDAC 8 amounted to 58%^e. Besides, the “inhibition of HDAC6” value against HDAC 6 is “not inhibited”. The “Percent inhibition HDAC 6” value on HDAC 6 was determined as 20%^d. Further, the inhibition at 0.2 µM on HDAC 5 (read-out: Percent inhibition HDAC 5) stood at 19%.

As to `O=C(CCCCCCC(=O)Nc1ccccc1)NO` [SAHA, Vorinostat, reference compound], the inhibition at 0.1 µM at HDAC 6 (read-out: Percent Inhibition) is 82%.
